This is an account of results in patent US12629419B2, “Prevention or mitigation of T-cell engaging agent-related adverse effects” (Hoffmann-La Roche Inc., priority 2020, dated 2026).

The subject of the assay is CEA-TCB-induced cytokine release. Briefly: CEA-TCB-induced cytokine release (Luminex, supernatants). Particulars: 10 nM CEA-TCB; escalating concentrations.

As to `CCS(=O)(=O)N1CC(CC#N)(n2cc(-c3ncnc4[nH]ccc34)cn2)C1` [baricitinib, Baricitinib], the IL-2 entry is recorded as “did not reduce”.
